Experimental data published in patent publication US8563257B2, “Sensitive and rapid methods of using chimeric receptors to identify autoimmune disease and assess disease severity” (Diagnostic Hybrids, Inc., priority 2000, dated 2013).

What was measured:
[1] = target: T1, chimeric hTSH/rLH-R receptor (RMc4) (Homo sapiens, UniProt P16473, D276T/DEL293-355/DEL363-369/E727D/H271S/INS291KEQNFSFSIFENFSKQCESTVRKADNETLYSA/INS360LSGW/K262T/K287S/K290P/L265S/L267E/L270T/Q289L/Q359N/R274V/S266K/S268K/S278T/T273L); assay: CHO-RMc4luc luciferase assay, hormones incubated three hours; assay type: cell-based, human/rat; conditions: for RLU, Hormones / Ratio of Signal/Negative: FSH 364 mIU/ml, LH 455 mIU/ml, hCG 29.5 IU/ml, hTSH 76 μIU/ml
T1 construct: contains a total of 2,324 base pairs and encodes 730 amino acids; expressed in transfected cells; host or cells: CHO-K1 (ATCC CCL-61), stably transfected with pMc4-GPH/Luciferase
Description: The response of the CHO-RMc4luc, RD-RMc4luc and CHO-Rluc cell lines to negative and positive TSI sera was then compared. The cells were incubated with TSI negative and positive sera for three hours. Cells were then lysed and luciferase activity was measured by a Veritas Microplat Luminometer. […] FIGS. 10A, 10B, 10C, 10D and 10E. […] FIGS. 10B and 10D, respectively. CHO-RMc4luc cells were about 1.3 to 3.5 more sensitive than RD-RMc4luc cells. FIG. 10E. In addition, the CHO-RMc4luc had lower levels of induced luciferase activity than CHO-Rluc when tested with TSI negative serum leading to lower background and increased signal/negative (S/N) ratios. FIG. 10A. […] FIG. 10A and FIG. 10C, respectively. […] FIG. 10E.
(§1) The CHO-RMc4luc cell line was also compared to the CHO-Rluc cell line for TSH sensitivity. The S/N ratio was derived from the luciferase assay using CHO-Rluc, CHO-RMc4luc and RD-RMc4luc cell lines induced with recombinant human TSH. Recombinant human TSH at various concentrations was incubated with CHO-RMc4luc or CHO-Rluc cell lines for three hours. After incubation, the luciferase assays were performed. […] FIG. 12.
(§2) CHO-RMc4luc and CHO-Rluc cell lines were also tested for their specificity using other anterior pituitary hormones including human luteinizing hormone, LH,) human follicle stimulating hormone (hFSH) and human chorionic gonadotropin (hCG), all of which share a common alpha subunit. […]

[2] = target: T2, wild type human TSH receptor (Homo sapiens, UniProt P16473); assay: CHO-Rluc luciferase assay, hormones incubated three hours; assay type: cell-based; conditions: for RLU, Hormones / Ratio of Signal/Negative: FSH 364 mIU/ml, LH 455 mIU/ml, hCG 29.5 IU/ml, hTSH 76 μIU/ml
T2 construct: expressed in transfected cells; host or cells: CHO-Rluc (from W-25 CHO-R cells)
Description: as §1, §2

human TSH receptor [3] = target: T3, human TSH receptor (Homo sapiens, UniProt P16473); assay: CHO-Rluc luciferase assay, method of Evans et al. (charcoal-stripped calf serum); assay type: cell-based; conditions: zero TSH standard subtracted
T3 construct: expressed in transfected cells; host or cells: CHO-Rluc (from W-25 CHO-R cells)
Description: In these experiments, the performance of CHO-Rluc cells using the method described by Evans et al. (Evans et al., J. Clin. Endocrinol. Metabol., 84:374 (1999)) was evaluated. The media from the cell monolayers in the 24 wells used in the 96-well microtiter plates prepared as described in Example 2 were aspirated and replaced with 100 μl Ham's F-12 medium containing 10% charcoal-stripped calf serum (Sigma), and incubated overnight at 35-37° C., in a humidified atmosphere containing 5% CO2.
Then, 10 μl of bovine TSH standards diluted to a range of concentrations (e.g., 0 10, 100, and 1000 μIU) and Graves' IgG (dissolved to a concentration of 10 mg protein/ml in charcoal-stripped calf serum) were added to respective quadruplicate wells. The suspension in each well was mixed, and the plates were incubated for 4 hours at 35-37° C., in a humidified atmosphere containing 5% CO2. The medium was then aspirated from each of the wells, and 150 μl of lysis buffer (Promega, as described above) were added to each well. The plates were then incubated at room temperature for 30 minutes to allow lysis of the cells in the wells. […] The luminometer read out provided results as relative light units per second (RLU/sec). The negative or “zero” TSH standard value was subtracted from each of the readings. […]

human TSH receptor [4] = target: T3, human TSH receptor; assay: CHO-Rluc luciferase assay with Starvation and Stimulation Media (with or without PEG); assay type: cell-based
Description: In these experiments, CHO-Rluc cells prepared as described in Example 1 were used in assays for diagnosis of Graves' disease. To prepare 24 monolayers for testing, 24 wells in a 96-well microtiter plate were first treated by adding 50-100 μl 0.1% gelatin solution (Sigma) to enhance attachment of the cells to the bottom of the 24 wells chosen for the test. Following incubation for approximately 1 minute at room temperature, the gelatin solution was removed from each of the wells by aspiration. It was noted that the gelatin can remain on the wells for longer than one minute. The gelatin serves to coat the wells with collagen, so that the cells attach more quickly to the wells and reach confluence more rapidly. However, cells can be planted and grown to confluence without gelatin and still perform well.
A freezer vial of CHO-Rluc cells produced as described in Example 1 was rapidly thawed in a 37° C. water bath to provide approximately 0.4 ml cell suspension, which was well-mixed using a pipette. The cells were then added to 2.5 ml GM (also referred to as “Planting Medium”), thoroughly mixed by vortexing for 1-2 seconds, and 100 μl aliquots of the cell suspension were added to each well, and the plates were covered. It is preferable to produce an even distribution of cells in each well. Thus, to avoid uneven cell distributions, the microtiter plate should be placed in a vibration-free hood for cell planting and attachment of cells to the walls of the microtiter plate. The planted cells were then incubated at 35-37° C., in a humidified atmosphere, containing 5% CO2, for approximately 20-24 hours, to allow the cells to form a nearly or completely confluent monolayer.
The GM was then aspirated from each well as completely as possible, being careful not to disturb the monolayers (i.e., confluent monolayers remain in the wells).
Then, in an alternative method to that previously described, 10 μl of patient, control, and TSH standard solutions were added to the appropriate wells. The TSH standards and IgG samples were diluted with diluent (i.e., HBSS-NaCl+222 mM sucrose). The TSH standards were tested at concentrations of 0, 10, 100, 1000, and 5000 μIU. Patient samples were diluted to a concentration of 10 mg protein/ml for use in the assay. As the Stimulation Medium is viscous, thorough mixing of the suspensions was important. Adequacy of the mixing was ascertained by microscopic examination of the monolayers. The plates were incubated for 4 hours at 35-37° C. in a 5% CO2, humidified incubator. The medium was carefully aspirated from each well and 150 μl lysis solution (Promega) was added to each well. The lysis solution contained 25 mM Tris-phosphate, pH 7.8, 2 mM diaminocyclohexane tetraacetic acid (CDTA), 2 mM dithiothreitol (DTT), 10% glycerol, and 1% Triton X-100. The plates were then incubated for 30 minutes at room temperature, to allow the monolayers to lyse. Following lysis, each well was scraped and stirred using a pipet tip. […] The tubes were vortexed for 1-2 seconds and the RLU/sec values determined, using settings of 5 seconds delay and 10 second read. To obtain average net values, the average of the “0 TSH” (i.e., the negative control) samples was subtracted from all test average values.
In these experiments, once the cell monolayers contained within the wells of 96-well microtiter plates (as described above), reached confluence, the Growth Medium was removed by aspiration and 100 μl of Starvation Medium were added to each monolayer. The plates were then incubated for 16-24 hours at 35-37° C., in a humidified atmosphere containing 5% CO2, to starve or condition the cells. The Starvation Medium was then aspirated from the wells.
To perform the assay, 10 μl of the patient specimen IgG, bTSH standards, and IgG controls (normal and Graves' disease sera), were added to the monolayers in triplicate. The suspensions were mixed within each well, and incubated under the above conditions for 4 hours. […]

Substance: FSH: human follicle stimulating hormone, anterior pituitary hormone sharing the common alpha subunit
- cross activity with anterior pituitary hormones [1]: Neither cell line showed any cross activity
- RLU, Hormones [1]: 1019 RLU
- Ratio of Signal/Negative [1]: 0.6
- cross activity with anterior pituitary hormones [2]: Neither cell line showed any cross activity
- RLU, Hormones [2]: 728 RLU
- Ratio of Signal/Negative [2]: 0.7

Substance: LH: human luteinizing hormone, anterior pituitary hormone sharing the common alpha subunit
- cross activity with anterior pituitary hormones [1]: Neither cell line showed any cross activity
- RLU, Hormones [1]: 1561 RLU
- Ratio of Signal/Negative [1]: 0.9
- cross activity with anterior pituitary hormones [2]: Neither cell line showed any cross activity
- RLU, Hormones [2]: 835 RLU
- Ratio of Signal/Negative [2]: 0.8

Substance: bTSH: bovine thyroid stimulating hormone standards
- net RLU/sec (human TSH receptor [3]; TSH 10 μIU/μl): 4031 RLU/sec
- net RLU/sec (human TSH receptor [3]; TSH 1000 μIU): 222,801 RLU/sec
- net RLU/sec (human TSH receptor [4]; Starvation Medium HBSS-NaCl + 222 mM sucrose, 10 μIU TSH/ml): 2,188 RLU/sec
- net RLU/sec (human TSH receptor [4]; Starvation Medium HBSS-NaCl + 222 mM sucrose, 1000 μIU TSH/ml): 142,666 RLU/sec
- net RLU/sec (human TSH receptor [4]; Starvation Medium standard HBSS with 20 mM sucrose, 10 μIU TSH/ml): 14,390 RLU/sec
- net RLU/sec (human TSH receptor [4]; Starvation Medium standard HBSS with 20 mM sucrose, 1000 μIU TSH/ml): 156,548 RLU/sec
- RLU/sec (human TSH receptor [4]; bTSH 10 μIU TSH · ml): 5,921 RLU/sec
- RLU/sec (human TSH receptor [4]; bTSH 25 μIU TSH · ml): 20,227 RLU/sec
- RLU/sec (human TSH receptor [4]; bTSH 50 μIU TSH · ml): 34,426 RLU/sec
- RLU/sec (human TSH receptor [4]; bTSH 75 μIU TSH · ml): 54,396 RLU/sec
- RLU/sec (human TSH receptor [4]; bTSH 100 μIU TSH · ml): 62,206 RLU/sec
- correlation coefficient (r) of the response to bTSH (human TSH receptor [4]; bTSH dilutions 0-100 μIU): 0.9925
- net RLU/sec (human TSH receptor [4]; pre-incubation medium CHO Char (10% charcoal-stripped calf serum), 10 μIU TSH/ml): 5,602 RLU/sec
- net RLU/sec (human TSH receptor [4]; pre-incubation medium CHO Char (10% charcoal-stripped calf serum), 1000 μIU TSH/ml): 229,492 RLU/sec
- net RLU/sec (human TSH receptor [4]; pre-incubation medium CHO GM (10% FBS), 10 μIU TSH/ml): 782 RLU/sec
- net RLU/sec (human TSH receptor [4]; pre-incubation medium CHO GM (10% FBS), 1000 μIU TSH/ml): 265,195 RLU/sec
- net RLU/sec (human TSH receptor [4]; starvation standard HBSS, Stimulation Medium HBSS-NaCl + 111 mM sucrose + 6% PEG-8000, 10 μIU TSH/ml): 5,980 RLU/sec
- net RLU/sec (human TSH receptor [4]; starvation standard HBSS, Stimulation Medium HBSS-NaCl + 111 mM sucrose + 6% PEG-8000, 1000 μIU TSH/ml): 207,831 RLU/sec
- net RLU/sec (human TSH receptor [4]; starvation standard HBSS, Stimulation Medium HBSS-NaCl + 222 mM sucrose, no PEG, 10 μIU TSH/ml): 1,336 RLU/sec
- net RLU/sec (human TSH receptor [4]; starvation standard HBSS, Stimulation Medium HBSS-NaCl + 222 mM sucrose, no PEG, 1000 μIU TSH/ml): 82,466 RLU/sec
- net RLU/sec (human TSH receptor [4]; starvation with the Stimulation Medium, 10 μIU TSH/ml): −1,148 RLU/sec
- net RLU/sec (human TSH receptor [4]; starvation with the Stimulation Medium, 1000 μIU TSH/ml): 47,478 RLU/sec
